Source: US5670510A, “Pyridyl substituted spirodienes for the treatment of inflammation” (G. D. Searle & Co., priority 1996, dated 1997)

Tested on: COX II
Conditions: read-out: COX II ID50; arachidonic acid 10 μM; pH 8.0; pre-incubated 10-20 minutes
Protocol: The COX II inhibition activity of the compounds of this invention illustrated in the Examples was determined by the following methods.
Recombinant baculoviruses were isolated by transfecting 4 μg of baculovirus transfer vector DNA into SF9 insect cells ([…]) along with 200 ng of linearized baculovirus plasmid DNA by the calcium phosphate method. […] Exp. Station Bull. 1555 (1987). Recombinant viruses were purified by three rounds of plaque purification and high titer (10E7-10E8 pfu/ml) stocks of virus were prepared. For large scale production, SF9 insect cells were infected in 10 liter fermentors (0.5×10^6 /ml) with the recombinant baculovirus stock such that the multiplicity of infection was 0.1. After 72 hours the cells were centrifuged and the cell pellet homogenized in Tris/Sucrose (50 mM: 25%, pH 8.0) containing 1% 3-[(3-cholamidopropyl)dimethylammonio]-1-propanesulfonate (CHAPS). The homogenate was centrifuged at 10,000×G for 30 minutes, and the resultant supernatant was stored at -80° C. before being assayed for COX activity.
COX activity was assayed as PGE2 formed/μg protein/time using an ELISA to detect the prostaglandin released. […] The PGE2 formed was measured by standard ELISA technology (Cayman Chemical).

CS(=O)(=O)c1ccc(C2=CC3(C=C2c2ccc(F)cc2)CC3)cc1 [Example 1, 5-(4-Fluorophenyl)-6-[4-(methylsulfonyl)phenyl]spiro[2.4]hepta-4,6-diene]
IC50: < 100 nM
